Experimental findings from patent US11787833B2, “Modified cyclic dinucleoside compounds as sting modulators” (ALIGOS THERAPEUTICS, INC., priority 2019, dated 2023) are described below.

Chains of the proteins cited; added tags and fusions are not shown.
UniProt Q86WV6, whole entry H232R: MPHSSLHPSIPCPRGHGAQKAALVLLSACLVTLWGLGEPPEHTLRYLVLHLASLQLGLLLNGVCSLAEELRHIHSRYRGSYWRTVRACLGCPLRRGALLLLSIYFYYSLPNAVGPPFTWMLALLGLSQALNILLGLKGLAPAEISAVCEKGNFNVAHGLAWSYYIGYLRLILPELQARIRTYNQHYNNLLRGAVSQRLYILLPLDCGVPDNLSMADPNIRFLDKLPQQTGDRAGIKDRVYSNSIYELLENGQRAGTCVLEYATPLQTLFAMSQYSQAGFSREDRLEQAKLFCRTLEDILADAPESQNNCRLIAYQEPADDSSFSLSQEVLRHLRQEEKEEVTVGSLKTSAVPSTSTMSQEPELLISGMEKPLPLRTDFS

Usually EC50 stands for the concentration needed to bring the measured effect to its halfway point.

This test concerns the target T1, 293T-Dual hSTING-R232 cells (Homo sapiens, UniProt Q86WV6, H232R).
T1 construct: host or cells: 293T-Dual hSTING-R232 cells (HEK 293T)
Put plainly: 293T R232 cell reporter assay (HEK 293T reporter assay). The following applies: digitonin 10 μg/mL, 30 min exposure, 20 h incubation. The class given is cell-based. The procedure:
293T-Dual hSTING-R232 cells (Invivogen) were plated in 96 well plates at a density of 5×10^4 cells per well in DMEM supplemented with 10% FBS, 1% Pen-Strep, 1% non-essential amino acids, 1% glutamine, and 1% HEPES. Assay setup took place after allowing cells to adhere for 48 h. Compounds dissolved in water were serially diluted in dosing buffer containing 10 μg/mL digitonin. Media was aspirated from the cells, and 50 μL buffer with compound was added in triplicate. After 30 min at 37° C., buffer was aspirated and replaced with 100 μL media. Cells were incubated for 20 h at 37° C., 5% CO2. IFN-beta expression and activation of the interferon regulatory factor (IRF) were measured based on luciferase and alkaline phosphatase reporter activity, respectively. Cell viability was determined in parallel.
In general terms: A reporter such as luciferase makes a cellular process visible.

Each structure is given as a SMILES string. Like-named read-outs stand apart in the source and are kept apart here.

Turning to `CO[C@H]1[C@H]2O[P@](=O)(SCC(=O)OC(C)(C)C)OC[C@H]3O[C@@H](n4cnc5c(N)ncnc54)[C@H](F)[C@@H]3O[P@](=O)(SCC(=O)OC(C)(C)C)OC[C@H]1O[C@H]2c1snc2c(=O)[nH]c(N)nc12` [Compound 1-50a], the EC50 is less than 0.25 µM (alkaline phosphatase reporter, read-out: EC50 [μM] IRF reporter) and 0.25 to 100 µM (luciferase reporter, read-out: EC50 [μM] IRN-β reporter).
With `CO[C@H]1[C@H]2O[P@@](=O)(SCC(=O)OC(C)(C)C)OC[C@H]3O[C@@H](n4cnc5c(N)ncnc54)[C@H](F)[C@@H]3O[P@](=O)(SCC(=O)OC(C)(C)C)OC[C@H]1O[C@H]2c1snc2c(=O)[nH]c(N)nc12` [Compound 1-50b], the EC50 reads like this: (EC50 [μM] IRF reporter, alkaline phosphatase reporter) less than 0.25 µM; (EC50 [μM] IRN-β reporter, luciferase reporter) 0.25 to 100 µM.
